Data as given in patent US20230099344A1, “COMPOUNDS AND METHODS FOR THE TARGETED DEGRADATION OF IRAK-4” (Arvinas Operations, Inc., priority 2021, published 2023).

By UniProt entry, the sequences of proteins in these tests, tags left out.
UniProt Q9NWZ3, whole entry: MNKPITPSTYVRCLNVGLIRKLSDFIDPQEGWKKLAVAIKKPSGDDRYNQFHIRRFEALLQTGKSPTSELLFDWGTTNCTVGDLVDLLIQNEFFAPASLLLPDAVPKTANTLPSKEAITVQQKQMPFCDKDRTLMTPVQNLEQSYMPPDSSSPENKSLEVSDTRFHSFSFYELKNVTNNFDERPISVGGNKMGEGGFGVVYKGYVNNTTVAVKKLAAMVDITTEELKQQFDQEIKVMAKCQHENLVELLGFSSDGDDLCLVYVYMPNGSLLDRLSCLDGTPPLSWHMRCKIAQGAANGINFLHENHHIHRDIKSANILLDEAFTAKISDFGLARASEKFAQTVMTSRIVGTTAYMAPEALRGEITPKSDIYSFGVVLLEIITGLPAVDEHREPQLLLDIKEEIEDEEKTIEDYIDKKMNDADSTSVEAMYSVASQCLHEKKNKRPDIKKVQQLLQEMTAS

Molecular target: IRAK-4 (Homo sapiens, UniProt Q9NWZ3)
Experiment: IRAK-4 ELISA, PBMC degradation
Experimental: Reagents: Human IRAK-4 Matched Antibody Pair Kit (Abcam ab218182) and ELISA Accessory Pack (Abcam ab210905).
Cell Treatment and Lysis:
1. OCI-Ly10: 200,000 cells are seeded at 1×10^6/ml in 96-well U-bottom plates 200 ul per well, treated with compound the same day. Incubate overnight. 2. PBMC: 800,000 cells are seeded at 2×10^6/ml in 96-well U-bottom deep-well plates, 400 ul per well, treated with compound the same day. Incubate overnight.
Cell lysate is collected and analyzed by ELISA for IRAK-4 levels.

DC50 (read-out: PBMC DC50, treated overnight): 1 to 5 nM
PBMC Dmax (treated overnight): A (A represents a Dmax value ≥90)
Structure (SMILES): CC(C)Oc1cc2c(cc1NC(=O)c1cnn3cccnc13)CN([C@H]1CC[C@H](OC3CN(c4ccc5c(c4)C(=O)N(C4CCC(=O)NC4=O)C5=O)C3)CC1)C2=O (stereo partly drawn)
PBMC DC90 (treated overnight): B (B represents a DC90 value ≥10.0 nM and <25.0 nM)
